# Data published in PubChem BioAssay AID1671463 (Sanford-Burnham Center for Chemical Genomics, 2021).
# Amino acid sequences for entries named in this document (tags omitted).
# UniProt P16066, whole entry: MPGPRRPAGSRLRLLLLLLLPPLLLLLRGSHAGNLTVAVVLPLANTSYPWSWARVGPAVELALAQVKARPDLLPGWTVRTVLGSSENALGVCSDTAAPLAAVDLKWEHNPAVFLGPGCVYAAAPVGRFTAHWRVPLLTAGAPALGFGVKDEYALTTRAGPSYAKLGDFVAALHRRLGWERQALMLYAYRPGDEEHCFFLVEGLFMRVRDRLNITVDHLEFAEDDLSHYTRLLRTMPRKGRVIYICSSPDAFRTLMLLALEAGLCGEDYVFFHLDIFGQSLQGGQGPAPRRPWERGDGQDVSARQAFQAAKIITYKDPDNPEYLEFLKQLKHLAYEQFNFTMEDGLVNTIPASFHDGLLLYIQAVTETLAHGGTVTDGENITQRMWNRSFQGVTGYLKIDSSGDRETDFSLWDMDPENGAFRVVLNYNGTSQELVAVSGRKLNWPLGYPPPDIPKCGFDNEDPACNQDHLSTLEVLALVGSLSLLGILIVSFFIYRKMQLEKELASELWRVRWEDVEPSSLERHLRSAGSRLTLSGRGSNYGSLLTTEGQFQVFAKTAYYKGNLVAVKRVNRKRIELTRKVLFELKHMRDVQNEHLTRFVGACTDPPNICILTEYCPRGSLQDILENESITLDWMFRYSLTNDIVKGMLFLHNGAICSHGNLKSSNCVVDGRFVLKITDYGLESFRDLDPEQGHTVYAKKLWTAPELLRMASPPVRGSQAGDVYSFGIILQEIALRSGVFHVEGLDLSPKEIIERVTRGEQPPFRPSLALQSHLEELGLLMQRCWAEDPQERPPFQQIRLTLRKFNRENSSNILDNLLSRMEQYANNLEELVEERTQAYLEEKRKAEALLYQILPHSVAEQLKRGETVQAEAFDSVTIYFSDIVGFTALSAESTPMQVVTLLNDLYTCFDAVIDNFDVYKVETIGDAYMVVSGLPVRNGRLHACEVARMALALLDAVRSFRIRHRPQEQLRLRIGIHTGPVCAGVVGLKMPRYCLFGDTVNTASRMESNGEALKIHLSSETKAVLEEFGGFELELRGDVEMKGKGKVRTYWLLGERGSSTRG
# The list shows a part of the results, in another mix than the full data. Some results for these compounds are left out of this collection, so the calls shown say nothing about other tests. The source made the active and inactive calls. No stated cut-off is given here; in the data, active means activation above about 40%; inactive means the rest.
# Molecular target: Atrial natriuretic peptide receptor 1 (Homo sapiens) (UniProt P16066)
# Experiment: GC-A stimulated cGMP production enhancers – HEK293 GC-A cells, cGMP TR-FRET, EC30 ANP, primary screen (AID 1671463)
# Conditions: at 10 µM, active compounds read high, 0% at EC30 ANP, 100% saturating ANP
row,Compound,activation
1,COc1ccc(Br)c(C(=O)NCC2(N3CCCCC3)CCCCC2)c1,inactive: 0.58%
2,C=C(C)C#CC(O)(C(=O)OC1CCN(C)CC1)c1ccccc1 (stereo unspecified),inactive: -4.23%
3,CN(C)c1cccc(C(=O)NCC2(N(C)C)CCCCC2)c1,inactive: -4.23%
4,CC(C)Oc1ccc(C(=O)NCC2(N(C)C)CCCCC2)cc1,inactive: 1.79%
5,O=C(OCCN1CCCC1)C(O)(c1ccccc1)c1ccccc1,inactive: -1.18%
6,O=C(OC1CN2CCC1CC2)C(CO)(c1ccccc1)c1ccccc1 (stereo unspecified),inactive: -4.72%
7,COc1cccc(C(=O)NCC2(N3CCCCC3)CCCCC2)c1,inactive: -1.87%
8,COc1ccc(Cl)cc1C(=O)NCC1(N(C)C)CCCCC1,inactive: -2.04%
9,O=C(NCC1(N2CCCCC2)CCCCC1)c1cccc(Cl)c1,inactive: 2.26%
10,CN(C)C1(CNC(=O)c2ccc(Br)cc2)CCCCC1,inactive: 2.9%
11,COc1cc(C(=O)NCC2(N(C)C)CCCCC2)c([N+](=O)[O-])cc1OC,inactive: 6.22%
12,C=CCN1CCN(CCOC(=O)C(O)(c2ccccc2)c2ccccc2)CC1,inactive: -0.29%
13,O=C(NCC1(N2CCCCC2)CCCCC1)c1cc(F)c(F)cc1Cl,inactive: 3.98%
14,CCN1CCCC(OC(=O)C2(O)c3ccccc3C=Cc3ccccc32)C1 (stereo unspecified),inactive: -21.2%
15,Cc1cc(C(=O)NCC2(N3CCCCC3)CCCCC2)ccc1[N+](=O)[O-],inactive: 1.7%
16,O=C(NCC1(N2CCCCC2)CCCCC1)c1cccc(Br)c1,inactive: -7.46%
17,COc1ccc(C(=O)NCC2(N(C)C)CCCCC2)cc1,inactive: -1.49%
18,Cc1ccccc1C(=O)NCC1(N2CCCCC2)CCCCC1,inactive: 5.24%
19,CN(C)c1ccc(C(=O)NCC2(N(C)C)CCCCC2)cc1,inactive: -0.94%
20,CN(C)C1CCCC1OC(=O)C(O)(c1ccccc1)c1ccccc1 (stereo unspecified),inactive: -3.79%
21,CC(C)N1C(=O)CC2(CCN(CCOC(=O)C(O)(c3ccccc3)c3ccccc3)CC2)C1=O,inactive: 1.46%
22,CCN(CC)CC(C)C(C)OC(=O)C(O)(c1ccccc1)c1ccccc1 (stereo unspecified),inactive: -2.7%
23,COc1cc(SC)ccc1C(=O)NCC1(N(C)C)CCCCC1,inactive: 1.98%
24,Cc1ccc(C(=O)NCC2(N3CCCCC3)CCCCC2)cc1,inactive: 3.69%
25,O=C(NCC1(N2CCCCC2)CCCCC1)c1cc([N+](=O)[O-])ccc1Cl,inactive: 0.14%
26,CN1[C@@H]2CC[C@H]1CC(OC(=O)C(O)(c1ccccc1)c1ccccc1)C2 (stereo partly specified),inactive: -6.26%
